The entries are a selection whose mix differs from that of the whole data set. Active and inactive are the calls of the source. The rule behind the calls is not given here.

This assay can be described thus: GFP fluorescence inhibitors and quenchers, dose response, artefact control for Rin1-Abl interaction inhibitor project, biochemical (AID 602182).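 Note: ABL1-eGFP fusion protein alone without its RIN1 binding partner.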 The conditions noted are these: GFP fluorescence interference/quenching counterscreen. (The purpose of a counterscreen is to sort out artefacts and off-target activity.)

With `COc1cccc(C(c2nnnn2C2CCCCC2)N2CCC(n3c(=O)[nH]c4ccccc43)CC2)c1OC` (stereo unspecified), the IC50 (commonly the concentration needed to halve the response being measured) is inactive: > 67.5 µM.

For the origin of these results see PubChem BioAssay AID602182 (The Scripps Research Institute Molecular Screening Center, 2012).
